# Test results from patent US20090099157A1, “TETRAHYDRO-PYRAZOLO-PYRIDINE THIOETHER MODULATORS OF CATHEPSIN S” (priority 2007, published 2009).
# Sequences of proteins named here, by UniProt entry; tags and fusion partners are left off. Residues count along the entry.
# UniProt P25774, 115-331: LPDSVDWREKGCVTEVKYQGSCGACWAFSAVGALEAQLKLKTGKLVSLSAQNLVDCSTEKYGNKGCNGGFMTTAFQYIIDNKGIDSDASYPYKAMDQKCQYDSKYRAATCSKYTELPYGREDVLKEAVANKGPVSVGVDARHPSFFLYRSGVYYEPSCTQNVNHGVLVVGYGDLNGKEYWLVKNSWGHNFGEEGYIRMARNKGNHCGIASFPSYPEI
# Target: Recombinant human cathepsin S (CatS) (Homo sapiens, UniProt P25774)
# Assay: biochemical
row,SMILES,IC50
1,"O=C(C1CCN(C[C@H](O)Cn2nc(-c3ccc(C(F)(F)F)c(SCCN4CCC(F)CC4)c3)c3c2CCNC3)CC1)N1CCCC1 [Example 512, (2S)-1-{3-[3-{[2-(4-Fluoropiperidin-1-yl)ethyl]sulfanyl}-4-(trifluoromethyl)phenyl]-4,5,6,7-tetrahydro-1H-pyrazolo[4,3-c]pyridin-1-yl}-3-[4-(pyrrolidin-1-ylcarbonyl)piperidin-1-yl]propan-2-ol]",2650 nM
2,"CS(=O)(=O)N1CCc2c(c(-c3ccc(C(F)(F)F)c(SCCN4CCCC(Cc5ccccc5)C4)c3)nn2CCCN2CCC(N3CCCC3=O)CC2)C1 (stereo not drawn) [Example 878, 1-[1-(3-{5-(Methylsulfonyl)-3-[3-({2-[3-(phenylmethyl)piperidin-1-yl]ethyl}sulfanyl)-4-(trifluoromethyl)phenyl]-4,5,6,7-tetrahydro-1H-pyrazolo[4,3-c]pyridin-1-yl}propyl)piperidin-4-yl]pyrrolidin-2-one]",150 nM
3,"CC(C)(C)OC(=O)N1CCC(NCCSc2cc(-c3nn(CCCN4CCCCC4)c4c3CN(S(C)(=O)=O)CC4)ccc2C(F)(F)F)CC1 [Example 756, 1,1-Dimethylethyl 4-{[2-({5-[5-(methylsulfonyl)-1-(3-piperidin-1-ylpropyl)-4,5,6,7-tetrahydro-1H-pyrazolo[4,3-c]pyridin-3-yl]-2-(trifluoromethyl)phenyl}sulfanyl)ethyl]amino}piperidine-1-carboxylate]",2180 nM
4,"CS(=O)(=O)N1CCc2c(c(-c3ccc(C(F)(F)F)c(SCCN4CCC(O)CC4)c3)nn2CC(O)CN2CCC(O)(c3ccccn3)CC2)C1 (stereo not drawn) [Example 782, 1-(2-Hydroxy-3-{3-[3-{[2-(4-hydroxypiperidin-1-yl)ethyl]sulfanyl}-4-(trifluoromethyl)phenyl]-5-(methylsulfonyl)-4,5,6,7-tetrahydro-1H-pyrazolo[4,3-c]pyridin-1-yl}propyl)-4-pyridin-2-ylpiperidin-4-ol]",140 nM
5,"O=S(=O)(N1CCc2c(c(-c3ccc(C(F)(F)F)c(SCCN4CCC(F)CC4)c3)nn2C[C@@H](O)CN2CCCCC2)C1)C(F)(F)F [Example 647, (2S)-1-{3-[3-{[2-(4-Fluoropiperidin-1-yl)ethyl]sulfanyl}-4-(trifluoromethyl)phenyl]-5-[(trifluoromethyl)sulfonyl]-4,5,6,7-tetrahydro-1H-pyrazolo[4,3-c]pyridin-1-yl}-3-piperidin-1-ylpropan-2-ol]",310 nM
6,"C[C@H]1COCCN1CC(O)Cn1nc(-c2ccc(C(F)(F)F)c(SCCN3CCCC3)c2)c2c1CCN(S(C)(=O)=O)C2 (stereo partly drawn) [Example 351, 1-[(3S)-3-Methylmorpholin-4-yl]-3-[5-(methylsulfonyl)-3-{3-[(2-pyrrolidin-1-ylethyl)sulfanyl]-4-(trifluoromethyl)phenyl}-4,5,6,7-tetrahydro-1H-pyrazolo[4,3-c]pyridin-1-yl]propan-2-ol]",780 nM
7,"CC(C)(O)C1CCN(CCSc2cc(-c3nn(C[C@@H](O)CN4CCOCC4)c4c3CN(S(C)(=O)=O)CC4)ccc2C(F)(F)F)CC1 [Example 227, (2S)-1-{3-[3-({2-[4-(1-Hydroxy-1-methylethyl)piperidin-1-yl]ethyl}sulfanyl)-4-(trifluoromethyl)phenyl]-5-(methylsulfonyl)-4,5,6,7-tetrahydro-1H-pyrazolo[4,3-c]pyridin-1-yl}-3-morpholin-4-ylpropan-2-ol]",1130 nM
8,"CS(=O)(=O)N1CCc2c(c(-c3ccc(C(F)(F)F)c(SCCN4CCOCC4)c3)nn2CC(O)CN2CCC(c3ccncc3)CC2)C1 (stereo not drawn) [Example 664, 1-[5-(Methylsulfonyl)-3-{3-[(2-morpholin-4-ylethyl)sulfanyl]-4-(trifluoromethyl)phenyl}-4,5,6,7-tetrahydro-1H-pyrazolo[4,3-c]pyridin-1-yl]-3-(4-pyridin-4-ylpiperidin-1-yl)propan-2-ol]",65 nM
9,"CS(=O)(=O)N1CCc2c(c(-c3ccc(C(F)(F)F)c(SCC(=O)N4CCCCC4)c3)nn2CC(O)CN2CCN(c3ccccc3C#N)CC2)C1 (stereo not drawn) [Example 821, 2-(4-{2-Hydroxy-3-[5-(methylsulfonyl)-3-{3-[(2-oxo-2-piperidin-1-ylethyl)sulfanyl]-4-(trifluoromethyl)phenyl}-4,5,6,7-tetrahydro-1H-pyrazolo[4,3-c]pyridin-1-yl]propyl}piperazin-1-yl)benzonitrile]",20 nM
10,"O=C(CO)N1CCc2c(c(-c3ccc(C(F)(F)F)c(SCCN4CCC(F)(F)C4)c3)nn2CC(O)CN2CCC(Oc3ncccn3)CC2)C1 (stereo not drawn) [Example 739, 1-{3-[3-{[2-(3,3-Difluoropyrrolidin-1-yl)ethyl]sulfanyl}-4-(trifluoromethyl)phenyl]-5-(hydroxyacetyl)-4,5,6,7-tetrahydro-1H-pyrazolo[4,3-c]pyridin-1-yl}-3-[4-(pyrimidin-2-yloxy)piperidin-1-yl]propan-2-ol]",60 nM
11,"CS(=O)(=O)N1CCc2c(c(-c3ccc(C(F)(F)F)c(SCCN4CCC(F)(F)CC4)c3)nn2C[C@@H](O)CN2CCC(NC(=O)CO)CC2)C1 [Example 780, N-{1-[(2S)-3-{3-[3-{[2-(4,4-Difluoropiperidin-1-yl)ethyl]sulfanyl}-4-(trifluoromethyl)phenyl]-5-(methylsulfonyl)-4,5,6,7-tetrahydro-1H-pyrazolo[4,3-c]pyridin-1-yl}-2-hydroxypropyl]piperidin-4-yl}-2-hydroxyacetamide]",45 nM
12,"CS(=O)(=O)N1CCc2c(c(-c3ccc(C(F)(F)F)c(SCCN4CCC(F)(F)CC4)c3)nn2C[C@@H](O)CN2CCOCC2)C1 [Example 515, (2S)-1-{3-[3-{[2-(4,4-Difluoropiperidin-1-yl)ethyl]sulfanyl}-4-(trifluoromethyl)phenyl]-5-(methylsulfonyl)-4,5,6,7-tetrahydro-1H-pyrazolo[4,3-c]pyridin-1-yl}-3-morpholin-4-ylpropan-2-ol]",190 nM
13,"CS(=O)(=O)N1CCc2c(c(-c3ccc(C(F)(F)F)c(SCCNCc4cccs4)c3)nn2CCCN2CCC(N3CCCC3=O)CC2)C1 [Example 42, 1-(1-{3-[5-Methanesulfonyl-3-(3-{2-[(thiophen-2-ylmethyl)-amino]-ethylsulfanyl}-4-trifluoromethyl-phenyl)-4,5,6,7-tetrahydro-pyrazolo[4,3-c]pyridin-1-yl]-propyl}-piperidin-4-yl)-pyrrolidin-2-one]",380 nM
14,"OC(CN1CCC(F)(F)C1)Cn1nc(-c2ccc(C(F)(F)F)c(SCCN3CCC(F)(F)C3)c2)c2c1CCNC2 (stereo not drawn) [Example 310, 1-(3,3-Difluoropyrrolidin-1-yl)-3-{3-[3-{[2-(3,3-difluoropyrrolidin-1-yl)ethyl]sulfanyl}-4-(trifluoromethyl)phenyl]-4,5,6,7-tetrahydro-1H-pyrazolo[4,3-c]pyridin-1-yl}propan-2-ol]",13000 nM
15,"CC(C)(O)C(=O)N1CCc2c(c(-c3ccc(C(F)(F)F)c(SCCN4CCC(F)CC4)c3)nn2CC(O)CN2CCCCC2)C1 (stereo not drawn) [Example 437, 1-{3-[3-{[2-(4-Fluoropiperidin-1-yl)ethyl]sulfanyl}-4-(trifluoromethyl)phenyl]-1-(2-hydroxy-3-piperidin-1-ylpropyl)-1,4,6,7-tetrahydro-5H-pyrazolo[4,3-c]pyridin-5-yl}-2-methyl-1-oxopropan-2-ol]",620 nM
